Measured values from US9399635B2, “Pyrazole derivative” (GREEN TECH CO., LTD., priority 2011, dated 2016).

By UniProt entry, the sequences of proteins in these tests, tags left out. Residues count along the entry.
UniProt P10636, 186-279 isoform 2 limits assumed: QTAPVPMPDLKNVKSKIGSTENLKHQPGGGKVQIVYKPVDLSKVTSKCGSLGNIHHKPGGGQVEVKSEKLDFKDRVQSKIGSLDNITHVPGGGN
UniProt P56817, 46-501 limits assumed: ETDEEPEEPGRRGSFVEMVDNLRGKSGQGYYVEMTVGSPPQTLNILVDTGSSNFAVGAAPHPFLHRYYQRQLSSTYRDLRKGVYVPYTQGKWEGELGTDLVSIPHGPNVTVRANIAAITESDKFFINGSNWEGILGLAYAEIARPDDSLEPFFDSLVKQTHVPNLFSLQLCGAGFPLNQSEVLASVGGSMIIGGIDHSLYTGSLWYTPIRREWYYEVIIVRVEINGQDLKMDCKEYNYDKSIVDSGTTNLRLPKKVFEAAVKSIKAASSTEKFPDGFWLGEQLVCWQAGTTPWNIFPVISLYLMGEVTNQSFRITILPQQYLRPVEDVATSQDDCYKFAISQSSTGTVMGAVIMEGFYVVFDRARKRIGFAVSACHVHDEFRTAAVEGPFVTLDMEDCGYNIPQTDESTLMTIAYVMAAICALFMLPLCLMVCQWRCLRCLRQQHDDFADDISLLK
UniProt P05067, 672-713 limits assumed: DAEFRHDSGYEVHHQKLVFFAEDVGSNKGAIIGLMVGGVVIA

How the values were obtained:
Type in all cases: biochemical
[1] = molecular target: recombinant three-repeat microtubule-binding domain (3R-MBD) of tau protein (Homo sapiens, UniProt P10636); assay: Determination of tau aggregation inhibitory activity (heparin-induced, thioflavin T fluorescence; electron microscope); settings: read-out: IC50 (μM) Test example 1 (tau aggregation inhibitory activity), 3R-MBD tau 10 μM, heparin 10 μM, 37° C. for 16 hours
[2] = molecular target: recombinant human β-secretase (Homo sapiens, UniProt P56817); assay: Determination of β-secretase inhibitory activity (BACE-1 FRET assay Kit); settings: read-out: IC50 (μM) Test example 2 (β-secretase inhibitory activity), fluorescent substrate peptide, 1 hour
Aβ 1-42 = Aβ 1-42 (Homo sapiens, UniProt P05067); assay: Determination of Aβ aggregation inhibitory activity (thioflavin T fluorescence); settings: read-out: IC50 (μM) Test example 3 (Aβ aggregation inhibitory activity), Aβ 1-42, 37° C. for 24 hours

COc1cc(OCc2ccccn2)ccc1/C=C/c1cc(/C=C/c2cc([N+](=O)[O-])c3cc[nH]c3c2)[nH]n1
IC50 [1]: 1.1 µM
IC50 [2]: 0.85 µM
IC50 (Aβ 1-42): 0.58 µM
